From patent publication US12514883B2 (dated 2026)

Test system: T. sanguinis
Test: [3H]5-HT uptake assay in T. sanguinis
Format: cell-based, Turicibacter sanguinis
Details: 30 min pre-treatment

CNCCC(Oc1ccc(C(F)(F)F)cc1)c1ccccc1 (stereo not shown) [fluoxetine]
effect on [3H]5-HT uptake by T. sanguinis: inhibited
